Holding throughout (test): binding titration
Experiment [1] has as its target GP2_cMet-P7-1#.
For experiment [2], the target named is GP2_cMet-P5-1#.
Experiment [3] concerns the target GP2_cMet-5#.
For experiment [4], the target named is GP2_cMet-1.2.5#.
For experiment [5], the target named is GP2_cMet-1.2.6#.
Experiment [6] deals with GP2_cMet-1.2.10#.

For orientation: Kd means the equilibrium constant for the complex coming apart.

B1: cMet (receptor)
chain: ECKEALAKSEMNVNMKYQLPNFTAETPIQNVILHEHHIFLGATNYIYVLNEEDLQKVAEYKTGPVLEHPDCFPCQDCSSKANLSGGVWKDNINMALVVDTYYDDQLISCGSVNRGTCQRHVFPHNHTADIQSEVHCIFSPQIEEPSQCPDCVVSALGAKVLSSVKDRFINFFVGNTINSSYFPDHPLHSISVRRLKETKDGFMFLTDQSYIDVLPEFRDSYPIKYVHAFESNNFIYFLTVQRETLDAQTFHTRIIRFCSINSGLHSYMEMPLECILTEKRKKRSTKKEVFNILQAAYVSKPGAQLARQIGASLNDDILFGVFAQSKPDSAEPMDRSAMCAFPIKYVNDFFNKIVNKNNVRCLQHFYGPNHEHCFNRTLLRNSSGCEARRDEYRTEFTTALQRVDLFMGQFSEVLLTSISTFIKGDLTIANLGTSEGRFMQVVVSRSGPSTPHVNFLLDSHPVSPEVIVEHTLNQNGYTLVITGKKITKIPLNGLGCRHFQSCSQCLSAPPFVQCGWCHDKCVRSEECLSGTWTQQICLPAIYKVFPNSAPLEGGTRLTICGWDFGFRRNNKFDLKKTRVLLGNESCTLTLSESTMNTLKCTVGPAMNKHFNMSIIISNGHGTTQYSTFSYVDPVITSISPKYGPMAGGTLLTLTGNYLNSGNSRHISIGGKTCTLKSVSNSILECYTPAQTISTEFAVKLKIDLANRETSIFSYREDPIVYEIHPTKSFISGGSTITGVGKNLNSVSVPRMVINVHEAGRNFTVACQHRSNSEIICCTTPSLQQLNLQLPLKTKAFFMLDGILSKYFDLIYVHNPVFKPFEKPVMISMGNENVLEIKGNDIDPEAVKGEVLKVGNKSCENIHLHSEAVLCTVPNDLLKLNSELNIEWKQAISSTVLGKVIVQPDQNFTGLIAGVVSISTALLLLLGFFLWLKKRKQIKDLGSELVRYDARVHTPHLDRLVSARSVSPTTEMVSNESVDYRATFPEDQFPNSSQNGSCRQVQYPLTDMSPILTSGDSDISSPLLQNTVHIDLSALNPELVQAVQHVVIGPSSLIVHFNEVIGRGHFGCVYHGTLLDNDGKKIHCAVKSLNRITDIGEVSQFLTEGIIMKDFSHPNVLSLLGICLRSEGSPLVVLPYMKHGDLRNFIRNETHNPTVKDLIGFGLQVAKGMKYLASKKFVHRDLAARNCMLDEKFTVKVADFGLARDMYDKEYYSVHNKTGAKLPVKWMALESLQTQKFTTKSDVWSFGVLLWELMTRGAPPYPDVNTFDITVYLLQGRRLLQPEYCPDPLYEVMLKCWHPKAEMRPSFSELVSRISAIFSTFIGEHYVHVNATYVNVKCVAPYPSLLSSEDNADDEVDTRPASFWETS
In the case of B1, the Kd is 27 nM in experiment [1]; 143 nM in experiment [2]; 59 nM in experiment [3]; 293 nM in experiment [4]; 1820 nM in experiment [5]; 272 nM in experiment [6].

(Values after patent US20160244745A1 (published 2016).)
